## Apparent affinities of Ab-14 variants for a coronavirus HR2 peptide

From the AlphaSeq antibody data of Li et al. 2023 (doi:10.1038/s41467-023-39022-2), copy in the FLAb collection.

All variants were tested on one target, the spike HR2 peptide PDVDLGDISGINAS (SARS-CoV-2).

Ab-14 is the parent antibody, in scFv form: VH, then a (GGGGS)3 linker, then VL. The light chain is unchanged in all variants.
VH: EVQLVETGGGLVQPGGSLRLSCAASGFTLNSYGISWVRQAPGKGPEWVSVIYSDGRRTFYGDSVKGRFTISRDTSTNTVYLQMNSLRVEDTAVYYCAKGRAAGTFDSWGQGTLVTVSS
VL: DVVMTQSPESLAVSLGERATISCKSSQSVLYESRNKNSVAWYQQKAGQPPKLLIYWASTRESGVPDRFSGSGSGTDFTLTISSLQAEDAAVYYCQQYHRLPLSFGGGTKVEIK

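The starting antibody came from a phage panning campaign against this peptide. The variants were designed computationally from a first round of random CDR variants and then made and measured. Their group label is 14H_GPLM_Gen (GPLM: also part of the Gaussian process libraries; Gen: genetic algorithm; a sequence that several methods proposed may carry one label only). The assay is AlphaSeq: two haploid yeast populations carry antibody and antigen on their surface. After mating in shaken culture at 30 °C for 16 h, diploids were selected and their barcode pairs sequenced. Read counts were normalised to the haploid input and turned into Kd by a linear fit to BCL2-family pairs of known affinity, for each replicate. The assay was run in six technical replicates.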

Variants are written as CDR1, CDR2 and CDR3 of the heavy chain (limits as in the source). Parent: GFTLNSYGIS, VIYSDGRRTFYGDSVK, GRAAGTFDS.
Affinities are written as log10 Kd with Kd in nM; a lower number is a better binder.
A mean of the replicates is given; it leaves out those without a signal.
An entry "ND" has no value in the source: the pair was not observed among the diploids in that replicate. This suggests poor binding but is not conclusive.
Of ten entries with the parent sequence, four were seen in most replicates (averages 0.34 to 2.37), three in one and three in none, so single entries are noisy.
Background: pairings of all heavy chain designs with three empty control strains gave a value in 1% of cases (median 2.08, 5th percentile 0.84). Values in that range, when seen in few replicates, are hard to tell from nonspecific mating. For each scFv, signals with the empty controls are counted beside the result, with their mean in brackets.
A sequence measured in both rounds can read differently, since the two assays cover different ranges.
In the paper, a design with two or fewer of six values counts as a poor binder.

CDR-H1,CDR-H2,CDR-H3,"log10 Kd, replicates","log10 Kd (nM), mean",empty controls
GFSLNEYGIS,VIYSDGRRTFYADSVK,GHAAGTFDS,-0.06 / -0.04 / 0.01 / 0.05 / 0.01 / -0.14,-0.03,0/18
GFSLNEYGIS,VIYSDGRRTFYGDSVK,GPAAGTFDK,ND / ND / ND / ND / 1.75 / ND,1.75,0/18
GFALNSYGIS,VIYSDGRRTFYADSVK,GQAAGTFDL,0.62 / 0.45 / 0.87 / 0.42 / 0.75 / 1.08,0.70,0/18
GFWLNSYGIS,VIYSDGRRTFYADSVK,GNAAGTFDS,ND / ND / ND / 1.98 / 2.85 / 1.36,2.06,1/18 (2.32)
GFDLNSYGIS,VIYADGRRTFYGDSVK,GQAAGTFDS,1.34 / 0.32 / 0.88 / 0.65 / 2.67 / 1.02,1.15,0/18
GFDLNSYGIS,VIYSDGRRTFYADSVK,GRAAGTFDK,0.57 / 0.39 / 0.41 / 0.77 / 0.51 / 0.16,0.47,0/18
GFQLNSYGIS,VIYSDGRRTFYSDSVK,GRTAGTFDS,0.37 / 0.31 / 0.19 / 0.21 / 0.58 / 0.36,0.34,0/18
GFELNSYGIS,VIYSDGRRTFYGDSVK,GQTAGTFDS,1.28 / 0.72 / 0.21 / 0.57 / 0.74 / 0.15,0.61,0/18
GFTLNDYGIS,VIYSDGMRTFYGDSVK,GRTAGTFDS,0.74 / 0.25 / 0.35 / 0.46 / 0.74 / 0.87,0.57,0/18
GFSLNSYGIS,VIYSDGRRTFYGDSVK,GKLAGTFDS,ND / ND / ND / ND / ND / ND,ND,0/18
GFDLNSYGIS,VIYSDGRRSFYADSVK,GRTAGTFDS,0.11 / -0.26 / 0.10 / -0.16 / 0.01 / 0.21,0.00,2/18 (2.19)
GFGLNEYGIS,VIYSDGRRTFYADSVK,GRTAGTFDS,-0.28 / -0.47 / -0.48 / -0.80 / -0.54 / -0.32,-0.48,0/18
GFSLNDYGIS,VIYSDGRRTFYVDSVK,GRQAGTFDS,1.50 / -0.28 / -0.07 / 0.13 / -0.23 / 0.41,0.24,0/18
GFSLNNYGIS,VIYSDGRRTFYGDHVK,GRTAGTFDS,ND / -0.88 / -1.14 / 0.01 / ND / 0.07,-0.48,0/18
GFSLNSYGIS,VIYSDGHRTFYVDSVK,GRTAGTFDS,ND / ND / ND / ND / ND / ND,ND,0/18
GFSLNEYGIS,VIYSDGRRTFYGDSVK,GMAAGTFDS,-0.22 / -0.45 / -0.64 / -0.80 / -0.53 / -0.63,-0.54,0/18
GFSLNSYGIS,VIYSDGRRTFYGDSVK,GQTAGTFDT,-0.06 / 0.26 / ND / ND / -0.14 / 0.76,0.21,0/18
GFTLNEYGIS,VIYSDGRRTFYGDSVK,GKAAGTFDL,0.08 / 0.38 / 0.09 / -0.83 / -0.18 / 0.25,-0.04,0/18
GFTLFSYGIS,VIYADGRRTFYGDSVK,GRAAGTFDS,ND / ND / 1.68 / 3.91 / 2.55 / 2.09,2.56,0/18
GFTLNEYGIS,VIYSDGRRTFYHDSVK,GRAAGTFDS,0.21 / 0.31 / 0.52 / -0.14 / -0.02 / 0.22,0.18,1/18 (2.16)
GFSLNDYGIS,VIYSDGRRTFYDDSVK,GRQAGTFDS,0.17 / -0.13 / 0.16 / -0.26 / 0.17 / 0.09,0.03,0/18
GFTLESYGIS,VIYSDGRRTFYADKVK,GRAAGTFDS,1.35 / 1.58 / 1.34 / 1.61 / 1.38 / 2.68,1.66,0/18
GFTLNSYGIS,VIYSDGVRTFYSDSVK,GTAAGTFDS,1.63 / 2.27 / 1.11 / 1.39 / 2.18 / 1.79,1.73,0/18
GFSLNMYGIS,VIYSDGRRTFYVDSVK,GRTAGTFDS,0.92 / 1.00 / ND / 1.72 / ND / ND,1.21,0/18
GFTLNDYGIS,VIYSDGRRTFYIDSVK,GRTAGTFDS,0.76 / 0.39 / 0.17 / 0.95 / 0.56 / 0.50,0.56,1/18 (2.49)
GFDLNSYGIS,VIYSDGRRTFYADSVK,GRAAGIFDS,ND / ND / ND / ND / ND / ND,ND,0/18
GFTLNEYGIS,VIYSDGRRTFYGDSVK,GWAAGTFDT,ND / ND / 0.01 / 0.11 / -0.38 / 1.21,0.24,0/18
GFSLNSYGIS,VIYSDGRRTFYADSVK,GKAAGTFDT,0.05 / 0.00 / 0.35 / -0.22 / -0.17 / 0.21,0.04,0/18
GFSLNSYGIS,VIYSDGRRTFYADDVK,GNAAGTFDS,ND / ND / ND / ND / ND / ND,ND,0/18
GFELNSYGIS,VIYSDGRRTFYGDSVK,GRTAGTFWS,ND / ND / ND / ND / ND / ND,ND,0/18
GFTLNSYGIS,VIYSDGRRTFYSDSVK,GEAAGTFDT,0.20 / 0.27 / 0.57 / 0.42 / 0.16 / 0.33,0.32,0/18
GFYLNSYGIS,VIYSDGRRTFYGDSVK,GRTAGTFDS,ND / ND / ND / ND / ND / 1.37,1.37,1/18 (0.73)
GFNLNSYGIS,VIYSDGRRTFYGDRVK,GRTAGTFDS,1.86 / 0.69 / 0.92 / 0.76 / 0.76 / 1.87,1.14,0/18
GFSLNSYGIS,VIYSDGRRTFYADSVK,GTTAGTFDS,-0.11 / -0.22 / -0.27 / -0.39 / -0.57 / -0.27,-0.31,1/18 (2.08)
GFHLNSYGIS,VIYSDGRRTFYADSVK,GRMAGTFDS,1.41 / 0.96 / 0.84 / 1.05 / 1.48 / 2.29,1.34,1/18 (2.83)
GFSLNSYGIS,VIYSDGRRTFYSDSVK,GWTAGTFDS,0.32 / 0.36 / -0.41 / -0.12 / -0.26 / 0.47,0.06,0/18
GFSLNSYGIS,VIYSDGRRTFYADSVK,GREAGTFDK,-0.31 / -0.22 / -0.31 / -0.47 / -0.10 / -0.16,-0.26,0/18
GFNLNNYGIS,VIYSDGRRTFYGDSVK,GRTAGTFDS,0.42 / 0.50 / 0.50 / 0.40 / 0.79 / 0.69,0.55,0/18
GFTLNSYGIS,VIYSDGRRTFYGDSVK,GNVAGTFDS,-0.12 / -0.11 / -0.26 / -0.39 / -0.07 / -0.44,-0.23,0/18
GFSLNSYGIS,VIYSDGRRTFYADSVK,GRHAGTFDS,1.38 / 1.74 / 0.86 / 1.08 / 1.57 / 1.71,1.39,0/18
GFTLNSYGIS,VIYSDGRRTFYADAVK,GEAAGTFDS,1.02 / 1.31 / 1.29 / 1.16 / 1.17 / 0.88,1.14,1/18 (2.04)
GFSLNEYGIS,VIYSDGRRTFYGDSVK,GQTAGTFDS,-0.09 / -0.12 / -0.62 / -0.31 / -0.65 / -0.45,-0.37,1/18 (0.99)
GFSLNSYGIS,VIYSDGRRTFYHDSVK,GQAAGTFDS,ND / ND / ND / ND / ND / ND,ND,0/18
GFQLNSYGIS,VIYADGRRTFYGDSVK,GKAAGTFDS,0.92 / 0.13 / 0.07 / 0.44 / 0.67 / 0.24,0.41,0/18
GFSLNWYGIS,VIYSDGRRTFYIDSVK,GKAAGTFDS,ND / ND / ND / ND / ND / ND,ND,0/18
GFTLNSYGIS,VIYSDGRRTFYSDRVK,GEAAGTFDT,1.15 / 1.29 / 1.49 / 0.56 / 1.08 / 0.99,1.10,0/18
GFTLNEYGIS,VIYSDGRRTFYGDSVK,GRHAGTFDK,1.04 / 3.45 / 1.38 / 1.41 / 1.66 / 3.38,2.05,1/18 (2.06)
GFTLNSYGIS,VIYSDGRRTFYGDPVK,GRTAGTFDS,ND / ND / ND / ND / ND / ND,ND,0/18
GFSLNSYGIS,VIYSDGRRTFYSDSVK,GRTAGTFDS,0.00 / 0.30 / 0.46 / -0.34 / 0.48 / 0.28,0.20,0/18
GFELNSYGIS,VIYSDGRRTFYSDSVK,GQAAGTFDS,0.27 / 0.08 / 0.17 / 0.16 / -0.02 / 0.56,0.20,0/18
GFELNEYGIS,VIYSDGRRTFYGDSVK,GQAAGTFDK,0.29 / 0.77 / 0.40 / 0.02 / 0.33 / 1.41,0.54,0/18
GFSLNSYGIS,VIYSDGRRTAYGDSVK,GREAGTFDS,-0.31 / -0.15 / -0.43 / 0.18 / -0.49 / -0.38,-0.26,1/18 (0.74)
GFSLNSYGIS,VIYSDGRRTFYGDSVK,GQAAGTFDF,1.11 / 1.12 / 1.02 / 1.83 / 2.47 / 1.98,1.59,0/18
GFSLNEYGIS,VIYSDGRRTFYGDSVK,GWAAGTFDS,0.09 / 1.20 / 0.37 / 1.31 / 1.02 / 1.74,0.95,1/18 (2.56)
GFTLNDYGIS,VIYSDGQRTFYGDSVK,GRTAGTFDS,-0.57 / 0.82 / 0.14 / -1.09 / 0.22 / -0.17,-0.11,0/18
GFWLNEYGIS,VIYSDGRRTFYIDSVK,GRTAGTFDS,1.32 / 3.90 / 0.98 / 2.01 / 2.73 / 3.05,2.33,0/18

For reference, 9 entries of the list once more:

| CDR-H1 | CDR-H2 | CDR-H3 | log10 Kd, replicates | log10 Kd (nM), mean | empty controls |
|---|---|---|---|---|---|
| GFSLNSYGIS | VIYSDGRRTFYGDSVK | GKLAGTFDS | ND / ND / ND / ND / ND / ND | ND | 0/18 |
| GFDLNSYGIS | VIYADGRRTFYGDSVK | GQAAGTFDS | 1.34 / 0.32 / 0.88 / 0.65 / 2.67 / 1.02 | 1.15 | 0/18 |
| GFSLNSYGIS | VIYSDGRRTFYADSVK | GREAGTFDK | -0.31 / -0.22 / -0.31 / -0.47 / -0.10 / -0.16 | -0.26 | 0/18 |
| GFDLNSYGIS | VIYSDGRRTFYADSVK | GRAAGTFDK | 0.57 / 0.39 / 0.41 / 0.77 / 0.51 / 0.16 | 0.47 | 0/18 |
| GFTLNSYGIS | VIYSDGRRTFYGDSVK | GNVAGTFDS | -0.12 / -0.11 / -0.26 / -0.39 / -0.07 / -0.44 | -0.23 | 0/18 |
| GFTLNDYGIS | VIYSDGRRTFYIDSVK | GRTAGTFDS | 0.76 / 0.39 / 0.17 / 0.95 / 0.56 / 0.50 | 0.56 | 1/18 (2.49) |
| GFWLNEYGIS | VIYSDGRRTFYIDSVK | GRTAGTFDS | 1.32 / 3.90 / 0.98 / 2.01 / 2.73 / 3.05 | 2.33 | 0/18 |
| GFSLNEYGIS | VIYSDGRRTFYADSVK | GHAAGTFDS | -0.06 / -0.04 / 0.01 / 0.05 / 0.01 / -0.14 | -0.03 | 0/18 |
| GFSLNDYGIS | VIYSDGRRTFYDDSVK | GRQAGTFDS | 0.17 / -0.13 / 0.16 / -0.26 / 0.17 / 0.09 | 0.03 | 0/18 |